Test results taken from paper PMC12015242, “A universal cannabinoid CB1 and CB2 receptor TR-FRET kinetic ligand-binding assay” (Frontiers in Pharmacology, 2025).

Chains of the proteins cited; added tags and fusions are not shown.
UniProt P34972, whole entry: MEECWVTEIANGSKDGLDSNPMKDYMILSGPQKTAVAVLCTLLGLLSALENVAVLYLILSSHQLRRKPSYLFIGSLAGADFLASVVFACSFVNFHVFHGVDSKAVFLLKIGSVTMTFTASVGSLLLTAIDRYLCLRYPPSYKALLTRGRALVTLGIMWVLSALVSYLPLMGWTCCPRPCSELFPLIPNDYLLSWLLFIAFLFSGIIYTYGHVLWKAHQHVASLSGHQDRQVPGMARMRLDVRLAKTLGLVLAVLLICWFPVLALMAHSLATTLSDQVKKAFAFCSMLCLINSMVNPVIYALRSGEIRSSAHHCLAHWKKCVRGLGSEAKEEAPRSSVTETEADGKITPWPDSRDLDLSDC

Key:
human CB2R (SNAP-CB2) [1] = biological target: T1, human CB2R (SNAP-CB2) (Homo sapiens, UniProt P34972); assay: biochemical
human CB2R (SNAP-CB2) [2] = biological target: T1, human CB2R (SNAP-CB2); assay: biochemical; format: binding; design: truncated CB1R (CB1R91-472) and full-length CB2R (CB2R1–360); 5HT3A signal peptide (N, cleaved yes); expressed in transfected cells; membranes

CCCCCCC(C)(C)c1cc(OC)c([C@@H]2C=C(CO)[C@@H]3C[C@H]2C3(C)C)c(OC)c1 [HU-308]
Kd (human CB2R (SNAP-CB2) [1]; pK d (kinetic), 37°C): 27.5 nM | Kd (human CB2R (SNAP-CB2) [1]; pKd (kinetic), 25°C): 17.8 nM | Ki (human CB2R (SNAP-CB2) [2]): 26.9 nM
